Measurements as given in PubChem BioAssay (NCI).
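Grown in 96-well plates, cells were treated for 48 hours with each compound at five concentrations. Insufficient inhibition: endpoint recorded as highest concentration tested. At the GI50, growth is halved. TGI: concentration producing complete growth inhibition.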

Experiments:
Experiment in all cases: NCI anticancer screen, dose series, 48 h
RXF 393 renal = system: RXF 393 renal
UACC-62 melanoma = system: UACC-62 melanoma
SK-OV-3 ovarian = system: SK-OV-3 ovarian
SNB-19 CNS = system: SNB-19 CNS
HCT-116 colon = system: HCT-116 colon
HCT-15 colon = system: HCT-15 colon
T-47D breast = system: T-47D breast
HCC-2998 colon = system: HCC-2998 colon
NCI-H460 lung = system: NCI-H460 lung
OVCAR-3 ovarian = system: OVCAR-3 ovarian
MOLT-4 leukemia = system: MOLT-4 leukemia
ACHN renal = system: ACHN renal
OVCAR-4 ovarian = system: OVCAR-4 ovarian
BT-549 breast = system: BT-549 breast
SK-MEL-28 melanoma = system: SK-MEL-28 melanoma
HOP-62 NSCLC = system: HOP-62 NSCLC
LOX IMVI melanoma = system: LOX IMVI melanoma
A498 renal = system: A498 renal
SN12C renal = system: SN12C renal
EKVX NSCLC = system: EKVX NSCLC
M14 melanoma = system: M14 melanoma
UO-31 renal = system: UO-31 renal
CAKI-1 renal = system: CAKI-1 renal
HT29 colon = system: HT29 colon
OVCAR-8 ovarian = system: OVCAR-8 ovarian
K-562 leukemia = system: K-562 leukemia
U251 CNS = system: U251 CNS
UACC-257 melanoma = system: UACC-257 melanoma
SR leukemia = system: SR leukemia
OVCAR-5 ovarian = system: OVCAR-5 ovarian
TK-10 renal = system: TK-10 renal
SF-539 CNS = system: SF-539 CNS
RPMI-8226 leukemia = system: RPMI-8226 leukemia
SF-295 CNS = system: SF-295 CNS
HL-60(TB) leukemia = system: HL-60(TB) leukemia
NCI-H522 lung = system: NCI-H522 lung
NCI/ADR-RES ovarian = system: NCI/ADR-RES ovarian
SF-268 CNS = system: SF-268 CNS
PC-3 prostate = system: PC-3 prostate
SK-MEL-2 melanoma = system: SK-MEL-2 melanoma
MDA-MB-231 breast = system: MDA-MB-231 breast
SNB-75 CNS = system: SNB-75 CNS
SK-MEL-5 melanoma = system: SK-MEL-5 melanoma
KM12 colon = system: KM12 colon
HOP-92 NSCLC = system: HOP-92 NSCLC
DU-145 prostate = system: DU-145 prostate
MCF7 breast = system: MCF7 breast
IGROV1 ovarian = system: IGROV1 ovarian
MALME-3M melanoma = system: MALME-3M melanoma
HS 578T breast = system: HS 578T breast
A549 NSCLC = system: A549 NSCLC
SW-620 colon = system: SW-620 colon
786-0 renal = system: 786-0 renal
COLO 205 colon = system: COLO 205 colon
MDA-MB-435 = system: MDA-MB-435
NCI-H23 lung = system: NCI-H23 lung
MDA-N = system: MDA-N
NCI-H322M lung = system: NCI-H322M lung
CCRF-CEM leukemia = system: CCRF-CEM leukemia

Cc1ccc(Sc2ccc([N+](=O)[O-])cc2[N+](=O)[O-])c([N+](=O)[O-])c1
GI50 (RXF 393 renal): 2.49 µM | TGI (RXF 393 renal): 13.8 µM | GI50 (UACC-62 melanoma): 1.88 µM | TGI (UACC-62 melanoma): 19.1 µM | GI50 (SK-OV-3 ovarian): 3.01 µM | TGI (SK-OV-3 ovarian): 9.09 µM | GI50 (SNB-19 CNS): 5.57 µM | TGI (SNB-19 CNS): 26.7 µM | GI50 (HCT-116 colon): 0.351 µM | TGI (HCT-116 colon): 15.9 µM | GI50 (HCT-15 colon): 2.3 µM | TGI (HCT-15 colon): 23 µM | GI50 (T-47D breast): 7.61 µM | TGI (T-47D breast): 33 µM | GI50 (HCC-2998 colon): 2.28 µM | TGI (HCC-2998 colon): 5.82 µM | GI50 (NCI-H460 lung): 2.88 µM | TGI (NCI-H460 lung): 8.38 µM | GI50 (OVCAR-3 ovarian): 1.89 µM | TGI (OVCAR-3 ovarian): 13.3 µM | GI50 (MOLT-4 leukemia): 0.55 µM | TGI (MOLT-4 leukemia): 11.4 µM | GI50 (ACHN renal): 2.71 µM | TGI (ACHN renal): 12.4 µM | GI50 (OVCAR-4 ovarian): 0.396 µM | TGI (OVCAR-4 ovarian): 14 µM | GI50 (BT-549 breast): 1.99 µM | TGI (BT-549 breast): 12.2 µM | GI50 (SK-MEL-28 melanoma): 5.4 µM | TGI (SK-MEL-28 melanoma): 25.1 µM | GI50 (HOP-62 NSCLC): 2.69 µM | TGI (HOP-62 NSCLC): 9.32 µM | GI50 (LOX IMVI melanoma): 0.377 µM | TGI (LOX IMVI melanoma): 16.2 µM | GI50 (A498 renal): 1.96 µM | TGI (A498 renal): 11.3 µM | GI50 (SN12C renal): 1.19 µM | TGI (SN12C renal): 19.4 µM | GI50 (EKVX NSCLC): 14.2 µM | TGI (EKVX NSCLC): 34.6 µM | GI50 (M14 melanoma): 3.9 µM | TGI (M14 melanoma): 18.7 µM | GI50 (UO-31 renal): 3.26 µM | TGI (UO-31 renal): 19.1 µM | GI50 (CAKI-1 renal): 3.82 µM | TGI (CAKI-1 renal): 66.9 µM | GI50 (HT29 colon): 0.625 µM | TGI (HT29 colon): 17.8 µM | GI50 (OVCAR-8 ovarian): 2.21 µM | TGI (OVCAR-8 ovarian): 18.1 µM | GI50 (K-562 leukemia): 0.406 µM | TGI (K-562 leukemia): 19.7 µM | GI50 (U251 CNS): 3.01 µM | TGI (U251 CNS): 10.2 µM | GI50 (UACC-257 melanoma): 13.9 µM | TGI (UACC-257 melanoma): 28.8 µM | GI50 (SR leukemia): 0.327 µM | TGI (SR leukemia): 2.12 µM | GI50 (OVCAR-5 ovarian): 7.82 µM | TGI (OVCAR-5 ovarian): 26.3 µM | GI50 (TK-10 renal): 10.4 µM | TGI (TK-10 renal): 28.6 µM | GI50 (SF-539 CNS): 2 µM | TGI (SF-539 CNS): 22.7 µM | GI50 (RPMI-8226 leukemia): 0.765 µM | TGI (RPMI-8226 leukemia): > 100 µM | GI50 (SF-295 CNS): 4.32 µM | TGI (SF-295 CNS): 29.8 µM | GI50 (HL-60(TB) leukemia): 0.281 µM | TGI (HL-60(TB) leukemia): 0.726 µM | GI50 (NCI-H522 lung): 1.45 µM | TGI (NCI-H522 lung): 5.37 µM | GI50 (NCI/ADR-RES ovarian): 0.57 µM | TGI (NCI/ADR-RES ovarian): 14.3 µM | GI50 (SF-268 CNS): 5.2 µM | TGI (SF-268 CNS): 19.9 µM | GI50 (PC-3 prostate): 4.5 µM | TGI (PC-3 prostate): 30 µM | GI50 (SK-MEL-2 melanoma): 14 µM | TGI (SK-MEL-2 melanoma): 41.2 µM | GI50 (MDA-MB-231 breast): 3.5 µM | TGI (MDA-MB-231 breast): 20 µM | GI50 (SNB-75 CNS): 3.07 µM | TGI (SNB-75 CNS): 22.1 µM | GI50 (SK-MEL-5 melanoma): 2.61 µM | TGI (SK-MEL-5 melanoma): 10.4 µM | GI50 (KM12 colon): 2.96 µM | TGI (KM12 colon): 13.9 µM | GI50 (HOP-92 NSCLC): 3.84 µM | TGI (HOP-92 NSCLC): 28.6 µM | GI50 (DU-145 prostate): 3.18 µM | TGI (DU-145 prostate): 11 µM | GI50 (MCF7 breast): 0.595 µM | TGI (MCF7 breast): 14.8 µM | GI50 (IGROV1 ovarian): 6.6 µM | TGI (IGROV1 ovarian): 29.1 µM | GI50 (MALME-3M melanoma): 13.1 µM | TGI (MALME-3M melanoma): 32.6 µM | GI50 (HS 578T breast): 6.01 µM | TGI (HS 578T breast): > 100 µM | GI50 (A549 NSCLC): 3.6 µM | TGI (A549 NSCLC): 25.4 µM | GI50 (SW-620 colon): 0.382 µM | TGI (SW-620 colon): 10.4 µM | GI50 (786-0 renal): 4.38 µM | TGI (786-0 renal): 18.1 µM | GI50 (COLO 205 colon): 2.2 µM | TGI (COLO 205 colon): 4.29 µM | GI50 (MDA-MB-435): 0.99 µM | TGI (MDA-MB-435): 10.3 µM | GI50 (NCI-H23 lung): 2.61 µM | TGI (NCI-H23 lung): 22.4 µM

CN1C(=O)N(C)P(OCCN(CCOP2N(C)C(=O)N(C)C(=O)N2C)P2(=O)NCCCO2)N(C)C1=O (centres undefined)
TGI (RXF 393 renal): > 100 µM | TGI (UACC-62 melanoma): > 100 µM | TGI (SK-OV-3 ovarian): > 100 µM | TGI (SNB-19 CNS): > 100 µM | TGI (HCT-116 colon): > 100 µM | TGI (HCT-15 colon): > 100 µM | TGI (T-47D breast): > 100 µM | TGI (HCC-2998 colon): > 100 µM | TGI (NCI-H460 lung): > 100 µM | TGI (OVCAR-3 ovarian): > 100 µM | TGI (MOLT-4 leukemia): > 100 µM | TGI (ACHN renal): > 100 µM | TGI (OVCAR-4 ovarian): > 100 µM | TGI (BT-549 breast): > 100 µM | TGI (SK-MEL-28 melanoma): > 100 µM | TGI (HOP-62 NSCLC): > 100 µM | TGI (LOX IMVI melanoma): > 100 µM | TGI (A498 renal): > 100 µM | TGI (SN12C renal): > 100 µM | TGI (EKVX NSCLC): > 100 µM | TGI (M14 melanoma): > 100 µM | TGI (UO-31 renal): 0.0554 µM | TGI (MDA-N): > 100 µM | TGI (CAKI-1 renal): > 100 µM | TGI (HT29 colon): > 100 µM | TGI (OVCAR-8 ovarian): > 100 µM | TGI (K-562 leukemia): > 100 µM | TGI (U251 CNS): > 100 µM | TGI (UACC-257 melanoma): > 100 µM | TGI (OVCAR-5 ovarian): > 100 µM | TGI (TK-10 renal): > 100 µM | TGI (SF-539 CNS): > 100 µM | TGI (RPMI-8226 leukemia): > 100 µM | TGI (NCI-H322M lung): > 100 µM | TGI (SF-295 CNS): > 100 µM | TGI (HL-60(TB) leukemia): > 100 µM | TGI (NCI-H522 lung): > 100 µM | TGI (NCI/ADR-RES ovarian): > 100 µM | TGI (SF-268 CNS): > 100 µM | TGI (PC-3 prostate): > 100 µM | TGI (CCRF-CEM leukemia): > 100 µM | TGI (SK-MEL-2 melanoma): > 100 µM | TGI (MDA-MB-231 breast): > 100 µM | TGI (SK-MEL-5 melanoma): > 100 µM | TGI (KM12 colon): > 100 µM | TGI (HOP-92 NSCLC): > 100 µM | TGI (DU-145 prostate): > 100 µM | TGI (MCF7 breast): > 100 µM | TGI (IGROV1 ovarian): > 100 µM | TGI (MALME-3M melanoma): > 100 µM | TGI (HS 578T breast): > 100 µM | TGI (A549 NSCLC): > 100 µM | TGI (SW-620 colon): > 100 µM | TGI (786-0 renal): > 100 µM | TGI (COLO 205 colon): > 100 µM | TGI (MDA-MB-435): > 100 µM | TGI (NCI-H23 lung): > 100 µM
